Consider 1 compound from ChEMBL document CHEMBL1132351, “Synthesis, in vitro pharmacology, and molecular modeling of very potent tacrine-huperzine A hybrids as acetylcholinesterase inhibitors of potential interest for the treatment of Alzheimer's disease” (J Med Chem, 1999).

The experiment can be described thus: Drug concentration that reaches 50% of antagonism index (AI); No reversion at 10 uM concentration. The class given is functional.

Molecules are shown by their SMILES.

Consider `CCCCC1=CC2Cc3nc4ccccc4c(N)c3C(C1)C2` (stereo unspecified), for which the AI50 entry is “No reversion”.
